Experimental data reported in patent US20020127211A1, “ABSORPTION OF MINERALS BY INTESTINAL CELLS” (priority 1997, published 2002).

Assays:
[1] = pH of the experimental medium with bacteria in the absence of Caco-2 cells
Experimental: Lactobacillits bulgaricits L fiS. YL8. Lactobacillus paracasei STI 1l Lactobacillits gasseri LGA7: Lactobacillus reuteri LR7 and Streptococczws thermophiluts Sfi20, YS4 (Nestec collection, Lausanne. Switzerland) are placed in culture under anaerobic conditions in MRS broth for Lactobacillus or M1 7 for Streptococcus for two times 24 h, washed in PBS and resuspended in carrier buffer before being introduced into the top compartment of the inserts. The Caco-2:bacteria ratio is then about 1: 100 according to the tests (6.7×10^7 or 3.4×10^8 cfu/ml in the top compartment of the inserts. for the tests presented in FIGS. 2 and 3) The absorption of calcium is evaluated according to the protocol mentioned above.
In all these experiments, the diffusion of Lucifer yellow is modulated in a similar manner but remains negligible. 30 A decrease in pH in the top compartment of the inserts is also observed when the Caco-2 cells are in the presence of lactobacilli, regardless of the strain. except with the Sfi2O strain (Table 1). There is therefore no correlation between the increase in the absorption of calcium and this decrease in pH. However certain bacterial strains capable of increasing the absorption of calcium are not 35 capable of acidifving the experimental medium in the absence of Caco-2. […]

Caco-2 cells = test: pH of the experimental medium (top compartment of inserts) with bacteria in the presence of Caco-2 cells; format: cell-based, human
Experimental: Transport of calcium: the Caco-2 cells are cultured on inserts for 3 to 5 weeks. On the day of the experiment. the cellular lawn is washed twice in PBS and then the bottom compartment of the insert incorporating the serosa (basolateral pole of the cells) receives 1.5 ml of carrier butTer (140 mM NaCl. 5.8 mM KC[. 0.34 mM NaH PO4 0.44 mM KHIPO4, 0.8 mM M2SO4. 20 mM HEPES. 4 mM glutamine, 25 mM glucose, pH 7.4) supplemented with 2.5 mM CaCI2. whereas the top compartment of the insert incorporating the intestinal lumen (apical pole of the cells) receives 1.5 ml of carrier buffer supplemented with 10 mM CaCl2 and trace amounts of 4^5CaCl2 and Lucifer yellow. The inserts are then placed at 37° C. and 50 Kil of sample in the bottom and top compartments are removed at regular intervals.
Lactobacillits bulgaricits L fiS. YL8. […] The Caco-2:bacteria ratio is then about 1: 100 according to the tests (6.7×10^7 or 3.4×10^8 cfu/ml in the top compartment of the inserts. for the tests presented in FIGS. 2 and 3) The absorption of calcium is evaluated according to the protocol mentioned above. […]

Caco-2 intestinal cells = test: Transport (absorption) of calcium by Caco-2 intestinal cells in the presence of bacteria; format: cell-based, human; conditions: FIGS. 2 and 3; 6.7×10^7 or 3.4×10^8 cfu/ml in the top compartment; 10 mM CaCl2 apical, 2.5 mM basolateral
Experimental: Cell culture: the human cell line Caco-^9, isolated from a colon adenocarcinoma. is obtained from American Type Culture Collection (passage 41). The cells are placed in culture in an amount of 4×1I^4 cells/cm^2 in DMEM containing 4.5 g/l of glucose. 20% heat-inactivated foetal calf serum, 1 mg/ml of fungizone, 100 U/ml of penicillin/streptomycin. 200 µg/ml of gentamycin and 1% of nonessential amino acids. The cells are regularly tripsinized and placed in culture aaain at 1:20. The cells used in the calcium transport experiments are placed in culture at 1×10^5 cells/cm^2 in permeable inserts previously coated with a layer of collagen I at 50 pLg/ml. […]
The radioactivity contained in these samples is evaluated by liquid scintillation counting and makes it possible to extrapolate on the quantity of coicl CaCl2 absorbed. The basal transport of calcium is expressed as nmol of calcium transported to the bottom compartment of the insert. The diffusion of Lucifer yellow detected by spectrofluorometrv in the bottom compartment is expressed in % of the quantitv introduced into the top compartment. […]
Lactobacillits bulgaricits L fiS. […] The Caco-2:bacteria ratio is then about 1: 100 according to the tests (6.7×10^7 or 3.4×10^8 cfu/ml in the top compartment of the inserts. for the tests presented in FIGS. 2 and 3) The absorption of calcium is evaluated according to the protocol mentioned above.

Lactobacillus johnsonii Lal (CNCM 1-1225) [La1]
pH without Caco-2 [1]: 6.75 +/− 0.3
pH with Caco-2 (Caco-2 cells): 3.75 +/− 0.3
absorption of calcium by the Caco-2 cells (Caco-2 intestinal cells): increased significantly
